{"source": "paper PMC8596132", "about": "“Rational Design of a Modality‐Specific Inhibitor of TRPM8 Channel against Oxaliplatin‐Induced Cold Allodynia” (Advanced Science, 2021)", "origin": "cited, not measured here", "details": "patients taking the drug; cited from earlier work"}
{"substance": "oxaliplatin", "values": [{"measurement": "patients with acute neurotoxicity", "value": "up to 89%"}]}
